Results on three substances are retold here after patent publication US9371387B2, “Composition for prevention or treatment of ischemic cardiac disease, comprising inhibitor against age-albumin synthesis or release of mononuclear phagocyte system cells as active ingredient” (GACHON UNIVERSITY OF INDUSTRY-ACADEMIC COOPERATION …, priority 2011, dated 2016).

Assay [1] has as its system human cardiomyocytes. The experiment in a line: Cell viability (MTT assay) of cardiomyocytes treated with albumin or AGE-albumin. The format is cell-based. The note with it: human cardiomyocytes, 0, 1, 10, 20 μg/mL, 24 hours, FIGS. 6A and 6B. How it is done:
Cardiomyocytes were suspended in DMEM (culture medium) containing 5% FBS, 5% HS (horse serum), […] gentamicin and 2.5 mg/mL amphotericin B, plated at a density of 1×10^6 cells/mL (10 mL) into 10 cm culture dishes, and maintained at 37° C. in a 5% CO2/95% atmosphere in an incubator. After 3 weeks of in vitro culture, the cells were treated with AGE-albumin and used in analyzing apoptosis-related properties.
(§1) Human cardiomyoctes were seeded at a density of 2×10^3 cells/well into 96-well plates. When reaching 80% confluence, the human cardiomyoctes were treated with various concentrations (0, 1, 10, 20 μg/mL) of albumin or AGE-albumin. After 24 hours of treatment, the cells were rinsed with PBS and examined for viability using an MTT [3-(4,5-dimethylthiazol-2-yl)-2,5-diphenyl tetrazolium bromide] assay. Absorbance in each well was read at 540 nm on a 96-well plate reader (VERSA Max, Molecular Devices) (FIGS. 6A and 6B). FIG. 6A is a graph of cell viability at various concentrations of albumin applied to cardiomyocytes while FIG. 6B is a graph of cell viability at various concentrations of AGE-albumin applied to cardiomyocytes.

Assay [2] has as its system blood monocytes of myocardial infarction rats. The experiment in a line: Immunohistochemistry of AGE-albumin in blood monocytes of myocardial infarction rats. Format: in vivo, rat. The note with it: myocardial infarction rats administered with sRAGE; FIG. 5. The method, then: (§2) Sprague-Dawley rats, each weighing 250-300 g, were prepared, and anaesthetized with a combination of ketamine (50 mg/kg) and xylazine (4 mg/kg). A 16-gauge catheter was inserted into the bronchus and connected with an artificial respirator. After the animal was fixed with a tape against a flat plate to secure the limbs and the tail, a 1 to 1.5 cm vertical incision was made left from the sternum, and the pectoralis major muscle was separated from the pectoralis minor muscle to ascertain the space between the 5th and 6th ribs. Then, the muscle therebetween was carefully 1 cm incised in a widthwise direction. […]
Immunohistochemistry was conducted on heart tissues from normal or myocardial infarction rats. […] After washing the secondary antibodies three times with PBS, coverslips were mounted onto glass slides using the Vectashield mounting medium (Vector Laboratories), and observed under a laser confocal fluorescence microscope (LSM-710, Carl Zeiss) (FIG. 4). […]
To examine the distribution and expression position of AGE-albumin in blood monocytes of rats, rats with myocardial infarctions were administered with sRAGE and blood monocytes from the rats were stained using immunohistochemistry for albumin (green), AGE (red), and DAPI (blue), followed by observation under a laser confocal fluorescence microscope (FIG. 5). […]

Assay [3] relates to human cardiomyocytes. Briefly: Protective effect of sRAGE against AGE-albumin-induced cell death, in vitro assay. The note with it: co-treatment with sRAGE and AGE-albumin; FIG. 7. The format is cell-based. The method, then:
as §1
To investigate the protective effect of sRAGE against AGE-albumin-induced cell death, human cardiomyocytes were treated with sRAGE alone, AGE-albumin alone or a combination of sRAGE/AGE-albumin, followed by reading absorbance at 540 nm (FIG. 7). FIG. 7 is a graph showing the protective effect of sRAGE on cardiomyocytes treated with AGE-albumin.

Assay [4] relates to cardiomyocytes in rat heart tissues. Briefly: Protective effect of sRAGE in myocardial infarction rats, cresyl violet staining of heart tissue. Format: in vivo. The note with it: sRAGE injected into heart tissue, FIG. 8. The method, then: as §2, with “direction. A retractor was pushed in between the 5th and 6th ribs which were then separated further from each other. Since the upper part of the heart is typically covered with the thymus in rats, the thymus was pulled to the head using an angle hook to clearly view the heart. The figure of the left coronary artery was scrutinized to determine the range of artery branches to be tied.” for “direction.”
To investigate the protective effect of soluble RAGE (sRAGE) on hypoxia-induced apoptosis of cardiomyocytes, sRAGE was injected into the heart tissue of rats. The relative levels of cardiomyocytes in rat heart tissues were evaluated by cresyl violet staining before microscopy (FIG. 8).

Take “AGE-albumin: a combination of albumin and AGE (advanced glycation end-product)”: in the assay on human cardiomyocytes [1], the cell viability result is reported as “decreases with an increase in AGE-albumin concentration”. Consider “albumin: multifunctional plasma protein, applied alone to cardiomyocytes as comparison”, for which, in the assay on human cardiomyocytes [1], the cell viability entry is reported as “remained almost unchanged”. As to “sRAGE: soluble RAGE (sRAGE), described as a soluble antibody to AGE-albumin”, the “albumin and AGE in blood monocytes” value in assay [2] is “decrease”. The “viability of the human cardiomyocytes” value with human cardiomyocytes [3] is given as “increased”. Moreover, the “relative levels of cardiomyocytes in the heart tissues” value in assay [4] is “dramatically increased”.
